Earlier results in publication PMC6118895 (Angewandte Chemie (International ed. in English), 2018).

System: EGFR Ex20Ins mutant-transfected Ba/F3 cells
Settings: most EGFR Ex20Ins mutant-transfected Ba/F3 cells; cited from earlier work

## COc1cc2ncnc(Nc3ccc(F)c(Cl)c3)c2cc1OCCCN1CCOCC1 [gefitinib]
  Response of EGFR Ex20Ins mutant-transfected Ba/F3 cells: resistance
